Calls of active or inactive are those of the source. No cut-off for these calls is given here.
Tested on: HEK293
Assay: Effect on HEK293 cells lacking human mu opioid receptor assessed as inhibition of cAMP accumulation at 1 uM
Format: functional, cell-based

| SMILES | Activity |
| --- | --- |
| C=C(I)[C@@H]1CC[C@@]2(C)C[C@@H]1c1c(O)cc(CCCCC)cc1O2 | inactive |
| C=CCc1cc(O)c([C@@H]2C=C(C)CC[C@H]2C(=C)C)c(O)c1 | inactive |
| C=C(C)[C@@H]1CCC(C)=C[C@H]1c1c(O)cc(CC)cc1O | inactive |
| C=C(I)[C@H]1CC[C@]2(C)C[C@H]1c1c(O)cc(CCCCC)cc1O2 | inactive |
| C=C(CO)[C@@H]1CCC(C)=C[C@H]1c1c(OC(C)=O)cc(CCCCC)cc1OC(C)=O | inactive |
| C=C(C)[C@@H]1CCC(C)=C[C@H]1c1c(OC)cc(CCCCC)cc1OC | inactive |
| C=C(COC(C)=O)[C@@H]1CCC(C)=C[C@H]1c1c(O)cc(CCCCC)cc1O | inactive |
| CCCCCc1cc(O)c([C@@H]2C[C@@H](C)CC[C@H]2C(C)C)c(O)c1 | inactive |
| C=C(C)[C@@H]1CCC(C)=C[C@H]1c1c(O)cc(CCCC)cc1O | inactive |
| CCCCCc1cc(O)c([C@@H]2C=C(C)CC[C@H]2C(C)C)c(O)c1 | inactive |
| C=C(C)[C@@H]1CCC(C)=C[C@H]1c1c(O)cc(CC(C)C)cc1O | inactive |
| C=Cc1cc(O)c([C@@H]2C=C(C)CC[C@H]2C(=C)C)c(O)c1 | inactive |
| CCCCCc1cc(O)c([C@@H]2C[C@@H](CO)CC[C@H]2C(C)C)c(O)c1 | inactive |
| C=C(C)[C@H]1CC[C@]2(C)C[C@H]1c1c(O)cc(CCCCC)cc1O2 | inactive |

Source: ChEMBL document CHEMBL5331141
